Laboratory results taken from patent US20050014734A1, “Modulation of interleukin-10 by DHEA” (Genovate Biotechnology Co., Ltd., priority 2003, published 2005).

System: testosterone
Test: Hormone determination: serum testosterone in SLE study
Assay type: in vivo, human
Settings: 200 mg/day DHEA, 24 weeks

Structure (SMILES): C[C@]12CC[C@H](O)CC1=CC[C@@H]1[C@@H]2CC[C@]2(C)C(=O)CC[C@@H]12 [DHEA, dehydroepiandrosterone]
- Testosterone change at last visit, mean (baseline mean 29, P < 0.05 vs placebo): 46.6 ng/dL and 47 ng/dL
- Testosterone change at last visit, median (baseline median 28): 39.5 ng/dL and 40 ng/dL

“And” between values parts separate entries of the source, which are not always exact repeats. Equal values may be shown once.
